According to patent US20260207718A1, “METHODS FOR TREATING LATE ONSET POMPE DISEASE IN PEDIATRIC PATIENTS” (Amicus Therapeutics, Inc., priority 2022, published 2026):
pKd: −log10 of the molar value.

Columns and labels:
[1] = target: cation-independent mannose-6-phosphate receptor (CIMPR), immobilised; assay: CIMPR affinity chromatography of ATB200 rhGAA purified without AEX capture (Embodiment 1). Bound material was eluted with a free M6P gradient and fractions were assayed for GAA activity (F460).
[2] = target: cation-independent mannose-6-phosphate receptor (CIMPR), immobilised; assay: CIMPR affinity column, same condition as for MYOZYME and LUMIZYME
[3] = target: cation-independent mannose-6-phosphate receptor (CIMPR), immobilised; assay: M6P receptor (CIMPR) plate binding assay
[4] = target: cation-independent mannose-6-phosphate receptor (CIMPR) on fibroblast cells (human) (UniProt P11717); assay: cell-based or functional assay
[5] = target: cation-independent mannose-6-phosphate receptor (CIMPR), immobilised; assay: CIMPR affinity chromatography of ATB200 rhGAA purified without AEX capture (Embodiment 1). This is the flow-through peak before M6P addition; fractions were assayed for GAA activity (F460).
[6] = target: cation-independent mannose-6-phosphate receptor (CIMPR), immobilised; assay: CIMPR affinity chromatography, different production batches
[7] = target: cation-independent mannose-6-phosphate receptor (CIMPR), immobilised; assay: CIMPR affinity chromatography of ATB200 rhGAA purified with capture on an AEX column (Embodiment 2). This is the flow-through peak before M6P addition; fractions were assayed for GAA activity (F460).
[8] = target: cation-independent mannose-6-phosphate receptor (CIMPR), immobilised; assay: CIMPR affinity chromatography of ATB200 rhGAA purified with capture on an AEX column (Embodiment 2). Bound material was eluted with a free M6P gradient and fractions were assayed for GAA activity (F460).
[9] = target: cation-independent mannose-6-phosphate receptor (CIMPR) on fibroblast cells (human) (UniProt P11717)
[10] = target: cation-independent mannose-6-phosphate receptor (CIMPR), immobilised; assay: CIMPR affinity column, elution with free M6P gradient, fractions read by GAA activity

Row | Substance | fraction bound to the CIMPR column and eluted with M6P (percent of total GAA activity) [1] [%] | percent of rhGAA bound to CIMPR [2] [%] | pKd [3] | concentration that saturates cellular receptors (uptake into normal and Pompe fibroblasts, 16-hr incubation, internalized GAA activity) [4] [nM] | fraction not bound to the CIMPR column, flow-through (percent of total GAA activity) [5] [%] | percent of rhGAA bound to CIMPR [6] [%] | fraction not bound to the CIMPR column, flow-through (percent of total GAA activity) [7] [%] | fraction bound to the CIMPR column and eluted with M6P (percent of total GAA activity) [8] [%] | Kuptake, Pompe fibroblasts [9] [nM] | Kuptake, normal fibroblasts [9] [nM] | percent of rhGAA bound to CIMPR (M6P eluted) [10] [%] | percent of rhGAA not bound to CIMPR (flow through) [10] [%] | uptake efficiency constant (Kuptake) [4] [nM]
1 | ATB200 recombinant human acid α-glucosidase (rhGAA) (from UniProt P10253 57-952) (enzyme) | 70 | > 70 | 8.40 to 8.70 | 20 | 30 | > 70 | 8 | 92 | 3 | 2 |  |  | 
2 | LUMIZYME® (alglucosidase alfa, conventional rhGAA product) (from UniProt P10253 57-952) (enzyme) |  |  |  | 250 |  |  |  |  | 57 | 56 | 22 | 78 | 56
3 | MYOZYME® (alglucosidase alfa, conventional rhGAA product) (from UniProt P10253 57-952) (enzyme) |  |  |  |  |  |  |  |  |  |  | 27 | 73 | 
